Measurements as given in ChEMBL document CHEMBL1142388, “Carbonic anhydrase activators: activation of the human tumor-associated isozymes IX and XII with amino acids and amines” (Bioorg Med Chem, 2008).

B1: Carbonic anhydrase 12 (Homo sapiens), O43570 (protein)
chain: MPRRSLHAAAVLLLVILKEQPSSPAPVNGSKWTYFGPDGENSWSKKYPSCGGLLQSPIDLHSDILQYDASLTPLEFQGYNLSANKQFLLTNNGHSVKLNLPSDMHIQGLQSRYSATQLHLHWGNPNDPHGSEHTVSGQHFAAELHIVHYNSDLYPDASTASNKSEGLAVLAVLIEMGSFNPSYDKIFSHLQHVKYKGQEAFVPGFNIEELLPERTAEYYRYRGSLTTPPCNPTVLWTVFRNPVQISQEQLLALETALYCTHMDDPSPREMINNFRQVQKFDERLVYTSFSQVQVCTAAGLSLGIILSLALAGILGICIVVVVSIWLFRRKSIKKGDNKGVIYKPATKMETEAHA

Tests used:
[1] = target: Carbonic anhydrase 9 (Homo sapiens) (UniProt Q16790); experiment: Activation of human recombinant CA9 catalytic domain by stopped-flow CO2 hydration method
[2] = target: Carbonic anhydrase 12 (Homo sapiens) (UniProt O43570); experiment: Activation of human recombinant CA12 catalytic domain by stopped-flow CO2 hydration method
N[C@@H](Cc1ccccc1)C(=O)O = conditions: Homo sapiens; 10 uM
N[C@H](Cc1ccccc1)C(=O)O = conditions: Homo sapiens; 10 uM
[3] = substrate: N[C@@H](Cc1ccccc1)C(=O)O; conditions: Homo sapiens; 10 uM; remark: listed apart in the source
[4] = substrate: N[C@H](Cc1ccccc1)C(=O)O; conditions: Homo sapiens; 10 uM; remark: listed apart in the source

Molecule	KA [1] [µM]	KA [2] [µM]	other results
N[C@H](Cc1ccccc1)C(=O)O	9.3	0.37	
N[C@@H](Cc1ccccc1)C(=O)O	16.3	1.38	
Carbonic anhydrase 9 (Homo sapiens) (from UniProt Q16790)			kcat (N[C@@H](Cc1ccccc1)C(=O)O): 4.7 10^5/s; kcat (N[C@H](Cc1ccccc1)C(=O)O): 6.1 10^5/s
B1			kcat [3]: 12.4 10^5/s; kcat [4]: 16.7 10^5/s
